Amino acid sequences for entries named in this document (tags omitted).
UniProt P09874, whole entry: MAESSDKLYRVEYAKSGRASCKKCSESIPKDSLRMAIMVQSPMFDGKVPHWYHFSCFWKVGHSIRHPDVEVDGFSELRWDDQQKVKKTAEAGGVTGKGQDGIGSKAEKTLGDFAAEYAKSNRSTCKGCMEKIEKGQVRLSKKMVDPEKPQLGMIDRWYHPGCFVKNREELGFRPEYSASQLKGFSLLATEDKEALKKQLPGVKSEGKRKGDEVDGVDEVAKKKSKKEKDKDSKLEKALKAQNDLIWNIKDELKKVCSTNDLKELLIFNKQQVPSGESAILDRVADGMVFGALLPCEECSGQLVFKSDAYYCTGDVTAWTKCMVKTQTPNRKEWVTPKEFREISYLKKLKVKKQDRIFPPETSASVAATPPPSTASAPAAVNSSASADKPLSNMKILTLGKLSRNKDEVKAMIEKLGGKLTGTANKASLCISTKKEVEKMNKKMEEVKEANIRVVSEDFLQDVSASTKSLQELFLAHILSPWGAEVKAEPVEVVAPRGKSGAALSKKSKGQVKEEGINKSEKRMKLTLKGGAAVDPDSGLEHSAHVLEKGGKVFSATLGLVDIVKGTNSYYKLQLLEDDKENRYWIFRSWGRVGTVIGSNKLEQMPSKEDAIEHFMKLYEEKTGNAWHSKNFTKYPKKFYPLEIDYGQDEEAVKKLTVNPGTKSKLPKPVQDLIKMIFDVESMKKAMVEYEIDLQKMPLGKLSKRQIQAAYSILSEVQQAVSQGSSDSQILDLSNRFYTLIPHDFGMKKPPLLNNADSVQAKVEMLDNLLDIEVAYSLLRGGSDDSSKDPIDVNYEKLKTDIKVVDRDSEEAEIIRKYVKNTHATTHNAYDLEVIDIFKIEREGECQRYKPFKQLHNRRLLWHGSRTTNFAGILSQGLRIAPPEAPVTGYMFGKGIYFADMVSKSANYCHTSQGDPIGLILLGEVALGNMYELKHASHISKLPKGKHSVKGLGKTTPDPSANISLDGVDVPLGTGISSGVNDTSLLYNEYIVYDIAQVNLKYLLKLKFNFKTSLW

According to patent publication US7429578B2, “Tricyclic inhibitors of poly(ADP-ribose) polymerases” (Agouron Pharmaceuticals, Inc., priority 1999, dated 2008):

Target: purified PARP protein (Homo sapiens, UniProt P09874)
Test: PARP enzyme inhibition assay
Format: biochemical
Details: read-out: Inhibition Constant Ki

Ki: 57 nM
SMILES: S=C1NCCc2c(-c3ccccc3)[nH]c3cccc1c23 [Compound 24, 2-Phenyl-1,3,4,5-tetrahydro-azepino[5,4,3-cd]indole-6-thione]
